Laboratory results reported in US20030162687A1, “Surfactants” (AJINOMOTO CO. INC., priority 2002, published 2003).

Assay: Flowability by powder tester Model PT-N, Carr's flowability index method
Assay type: physicochemical
Description: As for evaluation of flowability, parameters of angle of repose, degree of compaction, spatula angle, and degree of aggregation were measured by using a powder tester Model PT-N produced by HOSOKAWA MICRON CORP. based on the method for evaluating Carr's flowability index.

- Flowability index (140 mesh pass cut sample (106 μm)): 74.0
- Flowability index (200 mesh pass cut sample (75 μm)): 70.0
- Flowability index (280 mesh pass cut sample (53 μm)): 70.0
- Flowability index (control, not subjected to sieve classification): 58.0
Substance: sodium N-cocoyl glycinate [Na cocoylglycinate]
